{
  "source": "patent US20210239702A1",
  "about": "“METHODS FOR PREDICTING RESPONSIVENESS OF LUNG CANCER PATIENTS TO HER2-TARGETING THERAPIES” (MEMORIAL SLOAN KETTERING CANCER CENTER, priority 2018, published 2021)",
  "key": {"[1]": {"test_system": "HER2 amplified breast cancers", "conditions": "FDA label; cited from earlier work"}, "[2]": {"test_system": "HER2 mutant lung cancers", "description": "Patients with stage 4 or recurrent HER2 mutant lung cancers were enrolled in the cohort, as illustrated in the basket trial scheme in FIG. 1. Other cohorts of this basket trial included HER2 amplified lung, bladder and other solid tumors, as illustrated by FIG. 1. HER2 mutations were identified through next generation sequencing (NGS) including exon 20 insYVMA, insGSP, insTGT, single base pair substitutions L755A, L755S, V777L, V659E, S310F or other likely activating mutations. Other inclusion criteria included age (≥18 years old), Karnofsky performance status (≥70%), measurable disease by Response Evaluation Criteria in Solid Tumors (RECIST) v1.1, and adequate left ventricular, bone marrow, and hepatic function.\nPhysical examination and safety assessments were performed every 3 weeks. Tumor assessments using contrast enhanced computed tomography of the chest, abdomen, and pelvis were performed at baseline, week 6, week 12, and every 12 weeks thereafter until disease progression was observed. Brain imaging was not routinely performed unless clinically indicated. Left ventricular ejection fraction measurements by echocardiography or multi-gated acquisition scan were performed at baseline then every 3 months. […] Secondary objectives included assessment of progression-free survival (PFS) and toxicity according to the National Cancer Institute Common Terminology Criteria for Adverse Events version 4.1 (NCI CTCAE v4.1). The molecular associations between HER2 mutations, HER2 amplification and HER2 protein expression were examined using different molecular diagnostic assays whenever archival tissue was available. NGS assessed for HER2 mutation and amplification, fluorescence in situ hybridization (FISH) assessed for HER2 amplification, and HER2 protein overexpression was assessed by immunohistochemistry (IHC) and quantitative mass spectrometry. FISH was performed using FDA approved probe sets (PathVysion, Abbott Molecular, Chicago, Ill. and HER2 IQFISH pharmDx, Agilent, Santa Clara, Calif.) and positive HER2 amplification was defined as HER2/CEP17 ratio ≥2.0. HER2 protein by IHC was assessed using the 4B5 Ventana antibody (Ventana Medical Systems, Oro Valley Ariz.). Quantitative HER2 protein by selected reaction monitoring mass spectrometry on fixed-formalin paraffin-embedded tissue was performed using methods previously validated in breast cancers, with ≥740 amol/ug as the cutoff for high HER2 expression (see Nuciforo P., et al., Mol. Oncol., 10:138-147 (2016)).\nTarget accrual was a minimum of 7 patients (stage 1) and maximum of 18 patients (stage 1 and 2) in each cohort. The primary endpoint was best confirmed overall response rate (ORR) per RECIST v1.1. The Simon's optimal two-stage design was employed with a multiple testing adjusted type I error rate for each cohort. For a targeted agent where higher response rates were expected, a true ORR of ≤10% was considered unacceptable (null hypothesis), whereas a true ORR of ≥40% merited further study (alternative hypothesis). In the first stage, 7 patients were accrued; if there were no responses observed at interim analysis of the 7 patients in a particular cohort, the cohort was closed. Otherwise, 11 additional patients were accrued for a total of 18 patients."}},
  "data": [
    {"substance": "ado-trastuzumab emtansine", "values": [
      {"measurement": "rate of grade 1 or 2 infusion reactions", "setting": "[1]", "value": 1, "unit": "%"},
      {"measurement": "infusion reactions (grade 1 or 2)", "setting": "[2]; 5 of 18 patients, mild rigors, chills, pruritis, wheezing", "value": 28, "unit": "%"},
      {"measurement": "deaths or grade 4 toxicities on study", "setting": "[2]; NCI CTCAE v4.1", "value": "no deaths or grade 4 toxicities"},
      {"measurement": "dose reductions or discontinuations as a result of treatment-related adverse effects", "setting": "[2]; in vivo", "value": "no dose reductions or discontinuations"},
      {"measurement": "tolerability", "setting": "[2]; in vivo", "value": "well tolerated"},
      {"measurement": "severity of treatment-related adverse events", "setting": "[2]; infusion reactions, thrombocytopenia, elevations of hepatic transaminases", "value": "mainly grade 1 or 2 events"},
      {"measurement": "response among patients with positive FLIM-FRET for HER2-HER3 heterodimer", "setting": "[2]; three HER2-mutant lung cancer patients tested", "value": "one of them had a partial response"}
    ]}
  ]
}
